According to patent US20180012623A1, “Ionic Liquid, Lubricant, and Magnetic Recording Medium” (Dexerials Corporation, priority 2016, published 2018):

Experiment: Solubility test of ionic liquids in Vertrel XF and n-hexane (visual observation)
Conditions: 25° C., ultrasonic 5 minutes, left 1 day; for Solubility, Fluorine-based solvent: Vertrel XF [CF3(CHF)2CF2CF3], 0.2 parts by mass added to 100 parts by mass; for Solubility, n-Hexane: 0.5 parts by mass added to 100 parts by mass
Experimental: To a predetermined amount of Vertrel XF or n-hexane, the ionic liquid was added. Ultrasonic waves were applied to the resultant mixture for 5 minutes, followed by leaving the mixture to stand for 1 day. The solubility was visually observed.
After applying ultrasonic waves to the resultant for 5 minutes, the resultant was left to stand for 1 day. Thereafter, the solubility was visually observed and evaluated based on the following evaluation criteria. […] Similarly, after applying ultrasonic waves to the resultant for 5 minutes, the resultant was left to stand for 1 day. Thereafter, the solubility was visually observed and evaluated based on the following evaluation criteria.
Note that, the solubility was visually observed, and it was judged as soluble when it was transparent. Moreover, it was judged as not soluble (insoluble) when it was opaque or insoluble components were observed.
The results are presented in Table 2. • [Evaluation Criteria]
• 0.2% by mass or greater:
Soluble with addition of 0.2 parts by mass • Less than 0.2% by mass:
Insoluble with addition of 0.2 parts by mass
<<n-Hexane>> • 0.5% by mass or greater:
Soluble with addition of 0.5 parts by mass • Less than 0.5% by mass:
Insoluble with addition of 0.5 parts by mass

[1] = listed as Comparative Example 5A

| Substance | Solubility, Fluorine-based solvent | Solubility, Fluorine-based solvent (listed as Example 1A) | Solubility, n-Hexane | Solubility, n-Hexane (listed as Example 1A) | Solubility, Fluorine-based solvent [1] | Solubility, n-Hexane [1] | Solubility, Fluorine-based solvent (listed as Example 3A) | Solubility, n-Hexane (listed as Example 3A) |
| --- | --- | --- | --- | --- | --- | --- | --- | --- |
| nonafluorobutanesulfonic acid-1-dodecyl-2-undecylimidazolium [Ex. 1A] | ≥ 0.2% by mass | ≥ 0.2 % by mass | ≥ 0.5% by mass | ≥ 0.5 % by mass | – | – | – | – |
| pentadecafluorooctanoic acid octadecyl ammonium [5A, reference compound] | less than 0.2% by mass | – | ≥ 0.5% by mass | – | less than 0.2 % by mass | ≥ 0.5 % by mass | – | – |
| nonafluorobutanesulfonic acid-1-octadecylimidazolium [1A, reference compound] | less than 0.2% by mass | – | less than 0.5% by mass | – | – | – | – | – |
| nonafluorobutanesulfonic acid-1-octadecyl-2-undecylimidazolium [Ex. 3A] | ≥ 0.2% by mass | – | ≥ 0.5% by mass | – | – | – | ≥ 0.2 % by mass | ≥ 0.5 % by mass |
